Experimental data published in PubChem BioAssay AID624 (Vanderbilt High Throughput Screening Facility, 2007).
Only a part is listed here, and it is no random draw. The source made the active and inactive calls.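 How the source made its calls: active means fluorescence slope after compound addition differing from the mean of all screened samples at 99.7% confidence, in either direction; inactive means the rest.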

Protein sequences, listed by entry. Tags and fused reporters are not part of them.
UniProt P18825, whole entry: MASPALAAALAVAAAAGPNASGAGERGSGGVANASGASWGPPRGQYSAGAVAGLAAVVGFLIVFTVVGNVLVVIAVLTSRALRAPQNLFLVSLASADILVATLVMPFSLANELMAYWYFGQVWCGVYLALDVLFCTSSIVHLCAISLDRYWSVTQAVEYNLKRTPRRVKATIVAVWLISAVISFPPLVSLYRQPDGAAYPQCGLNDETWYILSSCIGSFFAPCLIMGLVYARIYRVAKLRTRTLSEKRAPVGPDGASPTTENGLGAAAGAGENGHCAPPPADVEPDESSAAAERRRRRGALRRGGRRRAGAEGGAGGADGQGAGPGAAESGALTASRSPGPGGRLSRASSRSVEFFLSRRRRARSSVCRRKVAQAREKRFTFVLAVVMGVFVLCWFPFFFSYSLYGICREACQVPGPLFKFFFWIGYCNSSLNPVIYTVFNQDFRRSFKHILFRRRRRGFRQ

Molecular target: Alpha-2C adrenergic receptor (Homo sapiens) (UniProt P18825)
Assay: compounds altering alpha2C-coupled GIRK flux – cell-based, HEK293 alpha2C/GIRK1/2, thallium flux, primary screen (AID 624);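 further: slope of fluorescence ratio to pre-addition baseline per second over 15 to 24 s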
Conditions: thallium flux BTC fluorescence, at 10 µM, actives lie on both sides

SMILES	slope
CP(=S)(Nn1cnnc1)Oc1ccccc1 (stereo not given)	inactive: 0.00597
Cc1ccc(C)c(NP(C)(=O)Oc2ccccc2)c1 (stereo not given)	inactive: 0.00339
CP(=O)(Nc1ccc2c(c1)OCCO2)Oc1ccccc1 (stereo not given)	inactive: 0.00621
CCN(CC)CC(O)COC(=O)C(O)(c1ccccc1)C1CCCCC1 (stereo not given)	inactive: 0.00431
CP(=O)(Nc1ccccn1)Oc1ccccc1 (stereo not given)	inactive: 0.00539
